The target in this test is GLP-1 receptor (RINm5f cell membranes) (UniProt P32301). The test is described as follows: cell-based or functional assay.

Take exendin-4 (peptide): the GLP-1 Cyclase EC50 came to 0.27 nM.

The record behind these values is patent publication EP2264064A1.
